# According to PubChem BioAssay AID624352 (Sanford-Burnham Center for Chemical Genomics, 2012):
# Only a part is listed here, and it is no random draw. The source made the active and inactive calls.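 How the source made its calls: active means inhibition of the luminescence signal of 40% or more relative to plate controls, in a single-dose primary screen at 18.75 µM; inactive means the rest.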
# Assay: HIF-2a reporter inhibitors, primary screen, luminescence, 786-0 RCC cells (AID 624352)
# Settings: 786-0 RCC cells HIF-2a reporter, luciferase luminescence, overnight; at 18.8 µM; stronger effect = higher value
row,SMILES,inhibition
1,CSc1ccc(Nc2c([N+](=O)[O-])cc([N+](=O)[O-])cc2[N+](=O)[O-])cc1,inactive: 2.77%
2,O=C(OC1CN2CCC1CC2)c1cccc([N+](=O)[O-])c1 (stereo unspecified),inactive: 9.48%
3,CCOC(=O)c1ccc(NC(=O)C(C)(CCl)SC)cc1 (stereo unspecified),inactive: -88.9%
4,CCC(C)N(CC(C)C)C(=S)SC(NC(C)=O)C(Cl)(Cl)Cl (stereo unspecified),inactive: 12.2%
5,COC(=O)C1(C)COP(=O)(N2CCCC2)OC1 (stereo unspecified),inactive: 10.2%
6,COP1(=S)c2c(C)nn(CCC#N)c2N=C(c2ccc(F)cc2)N1C (stereo unspecified),inactive: 7.28%
7,O=C(O)C(=O)c1ccc(N(CCCl)CCCl)cc1,inactive: -1.77%
8,O=C(Nc1ccncc1[N+](=O)[O-])c1ccc([N+](=O)[O-])cc1[N+](=O)[O-],inactive: 6.62%
9,O=C(COc1ccccc1)OC1CN2CCC1CC2 (stereo unspecified),inactive: 8.2%
10,CCOC(=O)Nc1cccc([As](=O)(O)O)c1,inactive: 15.1%
11,Cc1cc(SC(NC=O)C(Cl)(Cl)Cl)ncn1 (stereo unspecified),inactive: 14.7%
12,O=P(Nc1ccccn1)(c1cccc2ccccc12)c1cccc2ccccc12,inactive: 18.4%
13,O=[N+]([O-])c1ccc(Nc2ccc(Oc3ccc([N+](=O)[O-])cc3[N+](=O)[O-])cc2)c([N+](=O)[O-])c1,inactive: -4.11%
14,O=C(O)C(O)c1ccc(N(CCCl)CCCl)cc1 (stereo unspecified),inactive: 11.6%
15,CCOC(=O)Nc1ccc([As](=O)(O)O)c(O)c1,inactive: 12.8%
16,CC1CCNP(=O)(N(CCCl)CCCl)O1 (stereo unspecified),inactive: 13.6%
17,COP(=O)(OC)N1CC1c1ccccc1 (stereo unspecified),inactive: -5.98%
18,Cc1cc(SC(NC(=O)c2ccccc2)C(Cl)(Cl)Cl)nc(C(C)C)n1 (stereo unspecified),inactive: 11.6%
19,CCCCOc1ccc(C(=O)NCC2(N3CCCCC3)CCCCC2)cc1OC,inactive: 14.2%
20,ClCCSc1nnc(-c2cccnc2)o1,inactive: -47.4%
21,CC(C)c1ccc(OP(=O)(Nc2ccccn2)Oc2ccccc2F)cc1 (stereo unspecified),inactive: 19.2%
22,COC(=O)C1(C)COP(=O)(N2CCCCCC2)OC1 (stereo unspecified),inactive: 11.8%
23,O=[N+]([O-])c1cc([N+](=O)[O-])c(-c2ccn[nH]2)s1,inactive: -0.168%
24,CCN(CC)C(=S)SC(NC=O)C(Cl)(Cl)Cl (stereo unspecified),inactive: -0.204%
25,O=C(OC1CN2CCC1CC2)c1cccc2[nH]cnc12 (stereo unspecified),inactive: 25.9%
26,CC(C)NC(=O)NP(=O)(Oc1ccccc1)Oc1ccccc1,inactive: 8.76%

row,SMILES,inhibition
1,COc1cc(C(=O)NCC2(N3CCOCC3)CCCCC2)ccc1OCC(C)C,inactive: 9.64%
2,O=[N+]([O-])c1ccc(-c2cc([N+](=O)[O-])c(O)c([N+](=O)[O-])c2)cc1,inactive: -20.3%
3,O=[As](O)(c1ccc(O)cc1)c1ccccc1O,inactive: 26.1%
4,C[As](=O)(O)c1cccc(C(=O)O)c1,inactive: 15.9%
5,Cc1ccc(OP(=O)(Nc2ccc([N+](=O)[O-])cn2)Oc2ccc(C)cc2)cc1,inactive: 11.7%
6,[N-]=[N+]=NC1CCCCC1NC(=O)c1cc([N+](=O)[O-])cc([N+](=O)[O-])c1 (stereo unspecified),inactive: 1.16%
7,Cc1ccc2nc3c(c(C)c2c1)CC(C(Cl)Cl)S3 (stereo unspecified),inactive: -234%
8,O=[N+]([O-])c1cc(Oc2ccc([N+](=O)[O-])cc2C(F)(F)F)cc([N+](=O)[O-])c1,inactive: 9.11%
9,COc1ccc(N/C(=N/P(=O)(N2CCOCC2)N2CCOCC2)N2CCOCC2)cc1,inactive: 26.1%
10,Cc1c2c(nc3ccccc13)SC(C(Cl)Cl)C2 (stereo unspecified),inactive: -75.7%
11,Cc1cc(=O)[nH]c(N[N+](=O)[O-])n1,inactive: 8.97%
12,O=C(OC1CN2CCC1CC2)C12CC3CC(CC(C3)C1)C2 (stereo unspecified),inactive: 14.5%
13,O=P1(N(CCCl)CCCl)Nc2ccccc2N1,inactive: -31.6%
14,O=P1(N(CCCl)CCCl)OCCCN1CCCl (stereo unspecified),inactive: -6.55%
15,COc1cc(I)ccc1[As](=O)(O)O,inactive: 15.8%
16,COc1ccc2nc(NP(=O)(c3ccccc3)c3ccccc3)sc2c1,inactive: 22.1%
17,Cc1ccc(NCCc2c([N+](=O)[O-])cc([N+](=O)[O-])cc2[N+](=O)[O-])cc1,inactive: -138%
18,Nc1cccc2c([As](=O)(O)O)cccc12,inactive: 15.2%
19,CCCOP(=S)(Nc1nc(N)cc(=O)[nH]1)OCCC,inactive: 3.31%
20,CCOP(=O)(Nc1cccc2ccccc12)OCC,inactive: 15.2%
21,COc1cc(C2NCCC3(OCCO3)C2(C)C)cc(OC)c1OC (stereo unspecified),inactive: -4.85%
22,O=C(OC1CN2CCC1CC2)c1ccc(Cl)cc1 (stereo unspecified),inactive: 12.8%
23,CS(=O)(=O)c1ccc(Cl)c(NC(=O)COC(=O)C(O)(c2ccccc2)c2ccccc2)c1,inactive: 10.4%
24,COc1cc(C(=O)NCC2(N3CCOCC3)CCCCC2)cc(Cl)c1OC(C)C,inactive: 7.62%
25,O=[As](O)(O)c1cccnc1,inactive: 6.14%
26,O=[As](O)(c1cccc(O)c1)c1cccc(O)c1,inactive: 9.86%

row,SMILES,inhibition
1,Cc1cccc(OCC(=O)OC2CN3CCC2CC3)c1 (stereo unspecified),inactive: 5.49%
2,NC(=O)Nc1ccc([As](=O)(O)O)cc1,inactive: -3.47%
3,CCOP1(=S)c2c(C)nn(CCC#N)c2N=C(c2ccc(F)cc2)N1C (stereo unspecified),inactive: 17.7%
4,CN(C(=O)Cc1ccccc1)[C@@H]1CC[C@]2(CCCO2)C[C@H]1N1CCCC1,inactive: 8.25%
5,N#CCCN(C(=O)COC(=O)C(O)(c1ccccc1)c1ccccc1)c1ccc(F)cc1,inactive: 5.66%
6,CN(C(=O)Cc1ccc(Cl)c(Cl)c1)[C@H]1CC[C@@]2(CCCO2)C[C@@H]1N1CCCC1,inactive: -4.7%
7,CN(C)C(=O)c1cc([N+](=O)[O-])cc2c1-c1c(cc([N+](=O)[O-])cc1[N+](=O)[O-])C2=O,active: 74.2%
8,O=[N+]([O-])c1ccc2c(c1)nnn2O,inactive: 7.83%
9,O=P(Nc1nccs1)(c1ccccc1)c1nc2ccccc2s1 (stereo unspecified),inactive: -39.5%
10,O=P(Nc1nccs1)(Oc1ccccc1)Oc1ccccc1,inactive: 15.7%
11,CCOP1(=S)c2c(C)nn(CCC#N)c2N=C(c2ccccc2F)N1C (stereo unspecified),inactive: 2.38%
12,CS(=O)(=O)c1cc([N+](=O)[O-])c2no[n+]([O-])c2c1,inactive: 11.4%
13,O=C(O)COc1ccc([As](=O)(O)O)cc1[N+](=O)[O-],inactive: 24.9%
14,Nc1ccccc1[As](=O)(O)c1ccccc1,inactive: 13.3%
15,Cc1ccc(S(=O)(=O)N(CCCN)CCCc2c(C)nc(N)[nH]c2=O)cc1,inactive: 6.09%
16,O=P1(Nc2ncccn2)COc2ccccc2OC1,inactive: 16.2%
17,Nc1cccc([As](=O)(O)c2ccccc2)c1,inactive: 15.5%
18,NS(=O)(=O)c1cccc(NC(=O)COC(=O)C(O)(c2ccccc2)c2ccccc2)c1,inactive: 11.3%
19,O=P1(Nc2ccc(Br)cn2)COc2ccccc2OC1,inactive: 9.9%
20,Cc1ccc(OCC(=O)OC2CN3CCC2CC3)cc1 (stereo unspecified),inactive: 17.2%
21,O=[As](O)(c1cccs1)c1cccs1,inactive: -0.747%
22,Cc1ccc(C(=O)OC2CN3CCC2CC3)cc1 (stereo unspecified),inactive: 15.8%
23,CC1CCC(C(C)C)C(OP(=O)(Nc2ccccn2)c2ccccc2)C1 (stereo unspecified),inactive: 18.4%
24,Cc1nn(-c2ccccc2)c2c1P(=O)(N1CCOCC1)N(C)C(c1ccccc1)=N2 (stereo unspecified),inactive: -4.45%
25,CN(C)C1(CNC(=O)c2ccc(S(C)(=O)=O)cc2)CCCCC1,inactive: 14%
26,CCCC1OP(=O)(Nc2ccccc2)OCC1CC (stereo unspecified),inactive: 12.9%

row,SMILES,inhibition
1,O=C(/C=C/c1ccccc1)OC1CN2CCC1CC2 (stereo unspecified),inactive: -1.98%
2,COc1ccccc1CNC(=O)COC(=O)C(O)(c1ccccc1)c1ccccc1,inactive: 13.9%
3,CN(C(=O)Cc1ccc(Cl)c(Cl)c1)[C@@H]1CCCC[C@H]1N1CCCC1,inactive: 0.74%
4,CC(C)/C=N\N=C(\N)N[N+](=O)[O-],inactive: 6.22%
5,CC1(CBr)Cn2c(nc3ccccc3c2=O)S1 (stereo unspecified),inactive: 23.8%
6,CCOP(=O)(NC(=NC(C)c1ccccc1)NC(C)c1ccccc1)OCC (stereo unspecified),inactive: 7.89%
7,CCC1=CC2Cc3nc4ccc(Cl)cc4c(N)c3C(C1)C2 (stereo unspecified),inactive: -3.21%
8,O=P1(Nc2ccccn2)COc2ccccc2OC1,inactive: 14.8%
9,CN(CCCl)Cc1cc(Cl)c(NC2=NCCN2)c(Cl)c1,inactive: -4.98%
10,CCOP(=O)(Nc1ccc(C)cn1)OCC,inactive: 9.87%
11,CC(C)(C)C(=O)NC(Sc1ncccn1)C(Cl)(Cl)Cl (stereo unspecified),inactive: 12.3%
12,Clc1n[nH]nc1-c1nn[nH][15n]1,inactive: 2%
13,O=P1(N(CCCl)CCCl)NCCC(C(F)(F)F)O1 (stereo unspecified),inactive: 5.57%
14,O=P(Nc1nccs1)(c1ccccc1)c1ccccc1,inactive: 12.1%
15,CC(C)C(=O)NC(Sc1ccccc1)C(Cl)(Cl)Cl (stereo unspecified),inactive: 6.37%
16,c1nnnn1CCn1cnnn1,inactive: 16.2%
17,O=[As](O)(c1ccccc1)c1ccc(O)cc1,inactive: 10.5%
18,CC(=O)NC(SC(=S)N(C)C)C(Cl)(Cl)Cl (stereo unspecified),inactive: 13.7%
19,O=[N+]([O-])c1ncn(CCn2cnc([N+](=O)[O-])n2)n1,inactive: 5.17%
20,O=[N+]([O-])c1ccc(O)c(/C=N/Nc2ccc([N+](=O)[O-])cc2[N+](=O)[O-])c1,inactive: -25.3%
21,O=C(OC1CN2CCC1CC2)c1cccc(Cl)c1 (stereo unspecified),inactive: 6.58%
22,Nc1ccc([As](=O)(O)c2ccc([N+](=O)[O-])cc2)cc1,inactive: 16.1%
23,C(Cc1nn[nH]n1)Cc1nn[nH]n1,inactive: 0.184%
